Data on one molecule can be found in patent US11691981B2, “Heterocyclic compounds, preparation methods therefor, and methods of uses thereof” (INVENTISBIO CO., LTD., priority 2019, dated 2023).

Amino acid sequences for entries named in this document (tags omitted). Residues count along the entry.
UniProt P36897, 34-503 limits assumed: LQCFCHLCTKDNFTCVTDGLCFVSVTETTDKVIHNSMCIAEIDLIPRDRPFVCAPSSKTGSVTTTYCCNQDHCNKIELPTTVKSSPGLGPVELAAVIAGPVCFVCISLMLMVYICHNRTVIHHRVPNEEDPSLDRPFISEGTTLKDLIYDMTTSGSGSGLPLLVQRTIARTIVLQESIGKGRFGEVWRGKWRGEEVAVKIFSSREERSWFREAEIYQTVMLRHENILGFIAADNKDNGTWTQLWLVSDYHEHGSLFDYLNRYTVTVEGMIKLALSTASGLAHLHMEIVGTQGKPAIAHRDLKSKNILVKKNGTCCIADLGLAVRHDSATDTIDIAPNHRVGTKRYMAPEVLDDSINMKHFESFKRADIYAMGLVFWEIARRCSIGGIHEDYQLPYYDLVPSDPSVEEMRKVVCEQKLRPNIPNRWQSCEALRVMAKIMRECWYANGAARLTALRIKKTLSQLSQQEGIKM

SMILES strings stand for the structures.

The experiment deals with TGFβR1 (Homo sapiens (Human), UniProt P36897). The experiment in a line: TGFβR1 kinase inhibition assay (ADP-Glo Kinase Assay). The note with it: read-out: TGFβR1 IC50; 40 nM TGFβR1 in 2x enzyme mix, 5.4 μM ATP in 2x substrate mix, 120 min RT. A general note: In ADP-Glo the light output rises with the ADP produced.

Broadly, the IC50 is the concentration that gives 50% inhibition. For `CC(C)(O)c1cc(Nc2cc(Oc3cn(C4CC4)nc3CNc3ccccc3F)ccn2)ccn1`, the concentration for half-maximal inhibition (IC50) is 51 nM.
